Results on one compound are retold here after ChEMBL document CHEMBL2062388, “Integrated virtual screening for the identification of novel and selective peroxisome proliferator-activated receptor (PPAR) scaffolds” (J Med Chem, 2012).

Activity calls are given as the source filed them. No cut-off for these calls is given here.

This assay concerns the target T1, Peroxisome proliferator-activated receptor alpha (Homo sapiens) (UniProt Q07869).
T1 sequence (whole entry): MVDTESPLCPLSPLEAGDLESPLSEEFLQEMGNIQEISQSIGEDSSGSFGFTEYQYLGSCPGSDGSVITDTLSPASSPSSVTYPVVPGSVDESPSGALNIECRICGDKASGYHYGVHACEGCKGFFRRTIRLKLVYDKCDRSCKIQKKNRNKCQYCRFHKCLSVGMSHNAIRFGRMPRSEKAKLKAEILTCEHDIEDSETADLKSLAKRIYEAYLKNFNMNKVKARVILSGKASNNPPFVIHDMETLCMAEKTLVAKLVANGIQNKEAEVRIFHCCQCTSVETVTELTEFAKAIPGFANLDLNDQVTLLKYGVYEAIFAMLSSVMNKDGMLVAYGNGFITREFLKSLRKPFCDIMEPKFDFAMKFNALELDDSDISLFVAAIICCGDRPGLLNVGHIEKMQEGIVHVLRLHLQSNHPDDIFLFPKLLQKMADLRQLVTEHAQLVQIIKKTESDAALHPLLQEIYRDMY
The experiment in a line: Displacement of pan-PPAR fluormone from PPARalpha LBD at >= 100 uM by TR-FRET based LanthaScreen assay. (TR-FRET usually uses a lanthanide donor and a delayed reading to cut background.)

As to `O=C1NC(=S)NC(=O)C1=Cc1ccc(OCc2ccccc2)c(Cl)c1`, the inhibition entry was “inactive”.
